Article PMC3079430 (Journal of medicinal chemistry, 2010)

How the values were obtained:
[1] = test system: 24-hydroxylase gene reporter plasmid in rat osteosarcoma cells; test: 24-hydroxylase transcription assay; settings: average ratio of the EC50 for the analog to the EC50 for 1α,25-(OH)2D3
HL-60 promyelocytes = test: HL-60 cell differentiation assay; assay type: cell-based; settings: average ratio of the analog EC50 to the EC50 for 1α,25-(OH)2D3

`C=C1/C(=C\C=C2/CCC[C@]3(C)[C@@H]([C@H](C)CCCC(C)(C)O)CC[C@@H]23)C[C@@H](O)C[C@@H]1O` [Compound 1, 1α,25-Dihydroxyvitamin D3, reference compound] was tested, and the 24-OHase transcription ratio [1] was 1 and the HL-60 differentiation ratio (HL-60 promyelocytes) was 1.
